This note sets out measurements from PubChem BioAssay AID1053188 (Broad Institute, 2014).

Structures are written as SMILES. The list shows a part of the results, in another mix than the full data. Some results for these compounds are left out of this collection, so the calls shown say nothing about other tests. The source made the active and inactive calls.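 Rule for the calls: active = mean inhibition of at least 50% with a set share of replicates also reaching that level; inconclusive = no clear call, values can overlap the other calls; inactive = the rest.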

The experiment is described as follows: CD40 pathway blockade in BL2 B cells – cell-based, luciferase reporter, single point, primary screen (AID 1053188).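 Note: 0% = neutral control wells and 100% = IKK inhibitor VII at 50 µM.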 As to conditions: BL2 NF-kB luciferase reporter, CD40L-induced, 4 h; at 10 µM; stronger effect = higher value.
Usually inhibition stands for how much of the control response was suppressed. Turning to `C=CCN1CCN(CCOC(=O)C(O)(c2ccccc2)c2ccccc2)CC1`, the inhibition is inactive: 4.03%.

For the compound `CN(C)C1CCCC1OC(=O)C(O)(c1ccccc1)c1ccccc1` (centres undefined), the inhibition is inactive: 11%.

On to `CN1[C@@H]2CC[C@H]1CC(OC(=O)C(O)(c1ccccc1)c1ccccc1)C2` (some centres undefined), for which the inhibition is inactive: 2.91%.

Regarding `C=C(C)C#CC(O)(C(=O)OC1CCN(C)CC1)c1ccccc1` (centres undefined), the inhibition was active: 81.7%.
